By UniProt entry, the sequences of proteins in these tests, tags left out.
UniProt P21728, whole entry: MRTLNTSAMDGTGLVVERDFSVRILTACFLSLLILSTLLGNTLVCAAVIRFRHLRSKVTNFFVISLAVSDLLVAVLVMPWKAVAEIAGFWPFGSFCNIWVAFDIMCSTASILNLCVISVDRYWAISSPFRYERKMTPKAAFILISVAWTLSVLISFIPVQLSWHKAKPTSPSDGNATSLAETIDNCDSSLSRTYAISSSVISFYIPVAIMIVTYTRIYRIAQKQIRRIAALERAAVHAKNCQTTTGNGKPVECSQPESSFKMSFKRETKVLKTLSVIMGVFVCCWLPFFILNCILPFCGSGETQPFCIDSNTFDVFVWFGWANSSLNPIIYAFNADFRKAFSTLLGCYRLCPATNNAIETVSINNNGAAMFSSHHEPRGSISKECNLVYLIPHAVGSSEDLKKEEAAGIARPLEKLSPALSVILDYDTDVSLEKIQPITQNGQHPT

According to BindingDB's records for doi:10.1073/pnas.88.17.7491 (Duke University, 1991):

Target: D(1A) dopamine receptor (Homo sapiens, UniProt P21728)

- Ki: 24 nM
SMILES: OCCN1CCN(CCCC2c3ccc(F)cc3Sc3ccc(C(F)(F)F)cc32)CC1 (stereo unspecified) [NSC_68751]
